By UniProt entry, the sequences of proteins in these tests, tags left out. Where a name states a change or a piece, a line headed by the entry shows the natural chain unless it says otherwise.
UniProt Q96DB2: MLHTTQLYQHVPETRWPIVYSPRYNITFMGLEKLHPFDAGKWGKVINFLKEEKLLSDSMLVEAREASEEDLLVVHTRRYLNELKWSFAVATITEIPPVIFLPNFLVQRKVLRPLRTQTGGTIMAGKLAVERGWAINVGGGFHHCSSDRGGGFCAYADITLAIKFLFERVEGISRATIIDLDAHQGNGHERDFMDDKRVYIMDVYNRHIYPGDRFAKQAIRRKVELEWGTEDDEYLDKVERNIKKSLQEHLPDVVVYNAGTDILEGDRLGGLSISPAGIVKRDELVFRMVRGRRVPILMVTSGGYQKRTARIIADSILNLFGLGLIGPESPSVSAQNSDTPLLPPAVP

According to patent US8748451B2, “HDAC inhibitors and therapeutic methods of using same” (The Board of Trustees of the University of Illinois, priority 2009, dated 2014):

Biological target: HDAC11 (Homo sapiens (Human), UniProt Q96DB2)
Assay: HDAC11 inhibition assay
Type: biochemical
Conditions: mean of two experiments; read-out: HDAC11 IC50 (μM) ± SD

In the case of `O=C(CCCCCCC(=O)Nc1ccc([C@H]2O[C@@H](CSc3nc(-c4ccccc4)c(-c4ccccc4)o3)C[C@@H](c3ccc(CO)cc3)O2)cc1)NO` [Tubacin], the IC50 is reported as 3.79 ± 0.1 µM.
